Reference: patent US12195771B2, “Combination chemotherapy for the treatment of cancer” (WISCONSIN ALUMNI RESEARCH FOUNDATION, priority 2017, dated 2025)

Tested on: human A549 lung cancer cells
Assay: Assay of cell viability with two drugs (kinase inhibitor + ptRNase), A549
Type: cell-based
Conditions: two-drug combination with ptRNase
Method: We measured cell viability with a tetrazolium dye-based assay for metabolic activity.
We used the EC50 values obtained from single-drug treatment (Table 1) to design subsequent drug combination experiments. Two-drug combination experiments were performed using a 5×5 matrix to interrogate 25 concentration ratios per combination.
The EC50 values obtained from single-drug cell viability assays were used to design subsequent drug combination experiments. Two-drug combination experiments were performed by using a 5×5 matrix in 96-well plates to interrogate 25 dosing pairs. Cells in complete growth medium were plated at 5,000 cells per well in a 96-well microplate, which was incubated for 24 h at 37° C. […] After 48 h, cell viability was evaluated as described above.
The dose-effect curve for each drug was determined based on experimental observations and was compared to the effect afforded by the two-drug combination to derive a CI value. The CI values for all combinations were calculated using CalcuSyn 2.0 from Biosoft (Cambridge, UK). […] Each CI value was the mean of the results from 3 biological replicates.

## C[C@@H](Oc1cc(-c2cnn(C3CCNCC3)c2)cnc1N)c1c(Cl)ccc(F)c1Cl [Crizetinib]
  Synergism with ptRNase?: No
